## Yeast mating assay 2: variants of the scFv Ab-91

All variants were tested on one target, the spike HR2 peptide PDVDLGDISGINAS (SARS-CoV-2).

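Phage display of a naive human antibody library on the peptide gave the parent. Variants in AAYL51 differ from the parent at up to three CDR positions; double and triple changes were sampled at random. The scFvs were displayed on barcoded MATa yeast, the peptide on MATalpha yeast. Binding brings cells together so that they mate, and sequencing counts the barcode pairs among the diploids. A regression on co-assayed BCL2-family reference pairs converts the normalised counts of each replicate to an apparent Kd. Each pool was mated in three replicate cultures.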

Parent: Ab-91, a human scFv built as VL, the linker GGGGSGGGGSGGGGS, VH. Only the CDRs of the heavy chain vary.
VL: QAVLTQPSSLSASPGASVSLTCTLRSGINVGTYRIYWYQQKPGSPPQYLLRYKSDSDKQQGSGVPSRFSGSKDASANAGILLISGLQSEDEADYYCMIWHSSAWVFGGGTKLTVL
VH: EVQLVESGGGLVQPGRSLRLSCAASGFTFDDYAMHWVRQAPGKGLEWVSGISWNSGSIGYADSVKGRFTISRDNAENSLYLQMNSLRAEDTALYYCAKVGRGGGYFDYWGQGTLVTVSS

Variants are written as CDR1, CDR2 and CDR3 of the heavy chain (limits as in the source). Parent: GFTFDDYAMH, GISWNSGSIGYADSVK, VGRGGGYFDY. Numbers give log10(Kd / nM), so 0 is 1 nM and 3 is 1 µM. Smaller is tighter. An entry "ND" has no value in the source: the pair was not observed among the diploids in that replicate. This suggests poor binding but is not conclusive. Nonspecific signal, from three strains lacking the peptide, appeared in 21% of pairings of library AAYL51, centred on 4.54 (5% of these signals below 3.26); values are not corrected for it. Also given: how often the same scFv was detected with the empty control strains, with their mean in brackets. In this assay the parent's reference entry averaged 1.86; its copy inside this library read 0.88.

CDR-H1 | CDR-H2 | CDR-H3 | log10 Kd, replicates | signal with controls
GFTPDDYAMH | GISWNSLSIGYMDSVK | VGRGGGYFDY | ND ND ND | 0 of 9
GFTFDPYAMH | GISWNSGSPGYADSVK | VGRGGFYFDY | 4.77 ND ND | 1 of 9 (4.97)
GFTFFDYAMH | GISWNSSSIGYADSVK | VGRGDGYFDY | ND 3.21 ND | 1 of 9 (3.34)
GFTFDDCAMK | GISWESGSIGYADSVK | VGRGGGYFDY | ND ND ND | 0 of 9
GFTFDDYAMH | GISNNSGSIGYHDSVK | VTRGGGYFDY | ND ND ND | 0 of 9
GQTDDDYAMH | GISWNSGSIGYADSVK | VGWGGGYFDY | ND ND ND | 1 of 9 (4.97)
GFTFDDYAMA | SISWNSGSIGYSDSVK | VGRGGGYFDY | 4.18 4.28 ND | 2 of 9 (3.40)
GFTRDDYAMH | GISWNSGSIGYADSVI | VGYGGGYFDY | ND ND ND | 1 of 9 (4.20)
GFTFCDYAMH | GISWNSGSIWYCDSVK | VGRGGGYFDY | ND ND ND | 0 of 9
GFTFDDYAMN | GISWNSGSIGYARSVK | VGRGGGYFDY | ND 4.21 ND | 1 of 9 (4.04)
GFTFDDYAMH | GISVNSGNIGYADSVK | VGRGGGYFDY | 2.13 1.64 1.33 | 4 of 9 (5.03)
GFTFDDYAMH | GISWNSGSIGYADSVK | VGRGGGQHLY | ND ND ND | 0 of 9
GFTFDDYAMH | GISWCSYSIQYADSVK | VGRGGGYFDY | ND 3.85 4.54 | 2 of 9 (4.25)
GFTFDDYAMH | GISWNSGSIGYADSVK | VGRGLGYEDY | 4.10 3.95 ND | 3 of 9 (4.70)
GFTFWDYAMH | GISWNSGSIGYVDSVK | VGRHGGYFDY | ND ND ND | 2 of 9 (3.51)
GFTFDDYAMH | GISWNSGSIGYAPSVK | VGRGGGLMDY | 5.04 ND 5.02 | 6 of 9 (4.86)
GFTFDDVADH | GISWNSGFIGYADSVK | VGRGGGYFDY | ND ND 3.99 | 1 of 9 (3.90)
GFTFDDYAMH | HISWNSGSIGYADSVK | VGRGGGRFDY | ND ND ND | 0 of 9
GFTFDDYAMH | GISNNSGHIDYADSVK | VGRGGGYFDY | ND ND ND | 0 of 9
GFTFDDGAMH | GISWNSGSIGYADSVK | VGRGGGYFDS | ND ND 3.02 | 3 of 9 (4.63)
GFTFDDYAMH | GISWNDGSIGYMDSVK | VGRGFGYFDY | ND 5.54 4.23 | 2 of 9 (4.39)
GFTFDDYAMH | GISWNSESIGYADSVA | VGRGGGYFDY | ND 2.87 3.16 | 2 of 9 (4.60)
GFTFDDYAMH | GISWNVGSPGYADSVK | VGKGGGYFDY | ND ND ND | 1 of 9 (2.81)
GFTFDDCAMH | GISWNSGSIGYADSVK | VRMGGGYFDY | 2.94 2.75 2.05 | 0 of 9
GFTFDDYACH | GISWNSSSIGAADSVK | VGRGGGYFDY | ND 4.26 5.22 | 4 of 9 (4.25)
GFTFDDYAMH | NISWNSGSIGYADSVK | NGRLGGYFDY | ND ND ND | 0 of 9
GFTFDDYALV | GISWNSGSIGYADSVK | VGRGQGYFDY | ND 5.09 4.08 | 5 of 9 (5.05)
GPTFDDYAMH | PISWNSGSIGYADSVK | VGRGGGYEDY | ND 4.30 ND | 5 of 9 (4.41)
GHTFDDYAMH | GISWNSGSIGYADSVC | VGRGGGYIDY | ND ND ND | 0 of 9
GFTFDDFRMH | GISWNSGSISYADSVK | VGRGGGYFDY | ND ND ND | 2 of 9 (4.13)
GFTFDDYAMH | GISWNSGSIGYADSNK | VGRGGGYFDY | 2.34 2.33 2.14 | 0 of 9
GFTFDDYTNH | GISWNSGSIGYADEVK | VGRGGGYFDY | ND ND ND | 0 of 9
GFTFDDYAMH | GISWNSGSIGYADSVK | VGRWCGYFDY | 4.91 ND ND | 2 of 9 (4.22)
GFTFDDYAMH | GISWNSGSIGYADSPK | VGQGGGYFDT | ND ND ND | 0 of 9
GFTFQDYAMH | GISWNSGSQGYADSVK | VGRGGGVFDY | 4.06 ND ND | 0 of 9
GFTFDDYAMH | GIFWNSGSIGRADSVK | VGRGGGYFVY | 4.26 4.98 ND | 5 of 9 (4.56)
GFTFDDYAMH | RISWNSGSITYADSVK | VGRGTGYFDY | 5.91 ND 5.44 | 3 of 9 (5.14)

The first 6 variants above that were never detected:

| CDR-H1 | CDR-H2 | CDR-H3 | log10 Kd, replicates | signal with controls |
|---|---|---|---|---|
| GFTPDDYAMH | GISWNSLSIGYMDSVK | VGRGGGYFDY | ND ND ND | 0 of 9 |
| GFTFDDCAMK | GISWESGSIGYADSVK | VGRGGGYFDY | ND ND ND | 0 of 9 |
| GFTFDDYAMH | GISNNSGSIGYHDSVK | VTRGGGYFDY | ND ND ND | 0 of 9 |
| GQTDDDYAMH | GISWNSGSIGYADSVK | VGWGGGYFDY | ND ND ND | 1 of 9 (4.97) |
| GFTRDDYAMH | GISWNSGSIGYADSVI | VGYGGGYFDY | ND ND ND | 1 of 9 (4.20) |
| GFTFCDYAMH | GISWNSGSIWYCDSVK | VGRGGGYFDY | ND ND ND | 0 of 9 |

From the AlphaSeq antibody data of Engelhart et al. 2022 (doi:10.1038/s41597-022-01779-4), copy in the FLAb collection.